From paper PMC3014402 come the findings set out here.

This test concerns the target Carbonic anhydrase IX (human (endogenous in MDA-MB-231)) (UniProt Q16790). The experiment in a line: SDS-PAGE under non-reducing and reducing conditions with western blot. (In general: A western blot detects proteins with antibodies after separation by electrophoresis.)

For orientation: stoichiometry N means a count of units in the complex or per binding partner.

The substance “Carbonic anhydrase IX (from UniProt Q16790 38-459) (enzyme)” registered a stoichiometry N of 2.
